## scFv variants of Ab-14 (light chain) against a SARS-CoV-2 spike peptide

Binding partner: SARS-CoV-2 spike HR2 peptide, sequence PDVDLGDISGINAS.

Each scFv is VH, a 15-residue (Gly4Ser)3 linker, VL, as in the parent Ab-14, and differs from it in the CDRs of the light chain only.
VH: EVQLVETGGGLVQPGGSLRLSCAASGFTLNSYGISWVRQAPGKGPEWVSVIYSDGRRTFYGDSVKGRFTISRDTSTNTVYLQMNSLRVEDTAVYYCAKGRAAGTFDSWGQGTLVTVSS
VL: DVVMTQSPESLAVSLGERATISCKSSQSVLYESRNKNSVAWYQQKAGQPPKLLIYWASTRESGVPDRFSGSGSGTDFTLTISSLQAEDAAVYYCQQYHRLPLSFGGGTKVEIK

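Phage display of a naive human antibody library on the peptide gave the parent. AAYL50 was designed without a model: most single CDR substitutions and a random sample of double and triple ones. In AlphaSeq, yeast of one mating type display the scFv and yeast of the other type display the target. Mating (16 h, 30 °C) was followed by selection of diploids and sequencing of their barcodes. Scores were corrected for input abundance and mapped to Kd with protein pairs of known affinity run in the same pool. Mating was done three times.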

Each variant's VL is given in full. All variants listed here change Q27 of the VL, counted from its first residue. Affinities are written as log10 Kd with Kd in nM; a lower number is a better binder. Where no diploid with the target was found in that replicate, the entry reads "nd": below detection, most likely a poor binder, though not proof of it. Three control strains display no target. For library AAYL50, 18% of the pairings with them gave a signal, with a median of 4.19 and one signal in twenty below 2.99, so weak values seen in few replicates may be background.

With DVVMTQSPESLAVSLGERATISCKSSMSVLYESTNKNSVAWYQQKAGQPPKLLIYWASTRESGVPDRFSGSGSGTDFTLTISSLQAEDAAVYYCQQYARLPLSFGGGTKVEIK the result was 0.42, 0.60, 0.39.
With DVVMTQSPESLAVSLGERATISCKSSRSVEYESRNKNAVAWYQQKAGQPPKLLIYWASTRESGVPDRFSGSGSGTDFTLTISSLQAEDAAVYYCQQYHRLPLSFGGGTKVEIK the result was 0.96, 1.13, 1.18.
With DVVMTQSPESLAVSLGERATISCKSSESVLYESRNKNSVAWYQQKAGQPPKLLIYWASTRESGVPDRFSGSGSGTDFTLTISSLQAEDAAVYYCQQYHHLHLSFGGGTKVEIK the result was nd, nd, nd.
With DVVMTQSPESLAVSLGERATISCKSSNSVRYESRNKNSVAWYQQKAGQPPKLLIYSASTRESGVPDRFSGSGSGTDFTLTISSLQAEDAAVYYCQQYHRLPLSFGGGTKVEIK the result was 0.51, 0.73, 0.65.
With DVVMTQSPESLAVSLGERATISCKSSNSVLYESRNKNSVAWYQQKAGQPPKLLIYWASSRESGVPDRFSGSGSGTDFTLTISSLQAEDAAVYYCQQYHRLPLSFGGGTKVEIK the result was 2.18, 1.89, 2.20.
With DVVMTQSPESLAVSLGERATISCKSSESVLYESRNKNSVAWYQQKAGQPPKLLIYCASTRESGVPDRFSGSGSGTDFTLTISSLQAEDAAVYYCQQDHRLPLSFGGGTKVEIK the result was 1.05, 1.05, 0.85.
With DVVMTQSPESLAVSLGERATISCKSDWSVLYESRNKNSVAWYQQKAGQPPKLLIYWASTMESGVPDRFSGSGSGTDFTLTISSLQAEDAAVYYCQQYHRLPLSFGGGTKVEIK the result was nd, 3.27, nd.
With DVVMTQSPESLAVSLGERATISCKSSKSVLYESRNKNSQNWYQQKAGQPPKLLIYWASTRESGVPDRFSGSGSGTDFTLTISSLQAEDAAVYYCQQYHRLPLSFGGGTKVEIK the result was nd, nd, nd.
With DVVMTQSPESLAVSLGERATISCKSSKSVLYESRNKNSVAWYQQKAGQPPKLLIYEASGRESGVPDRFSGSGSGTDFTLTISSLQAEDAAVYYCQQYHRLPLSFGGGTKVEIK the result was 0.24, 0.54, 0.36.
With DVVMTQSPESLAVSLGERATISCKSSHSVLYESRNKNSVAWYQQKAGQPPKLLIYWASTRLSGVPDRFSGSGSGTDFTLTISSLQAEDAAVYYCQQYHRLSLSFGGGTKVEIK the result was 1.46, 1.62, 1.57.
With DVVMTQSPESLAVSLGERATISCKSSNSVLYVSRNKNSVAWYQQKAGQPPKLLIYWASTRESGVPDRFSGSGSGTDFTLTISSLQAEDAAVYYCQQYHRLPLSFGGGTKVEIK the result was 2.72, 2.90, 3.57.
With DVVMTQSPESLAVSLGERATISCKSSPSVLYESRNKNSVAWYQQKAGQPPKLLIYWASFRESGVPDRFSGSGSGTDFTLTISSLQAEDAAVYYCQQMHRLPLSFGGGTKVEIK the result was nd, nd, nd.
With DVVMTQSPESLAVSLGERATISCKSSNSVLYESRNKNSVAWYQQKAGQPPKLLIYWASTRESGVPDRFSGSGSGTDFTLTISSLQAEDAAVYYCQQYKREPLSFGGGTKVEIK the result was nd, nd, nd.
With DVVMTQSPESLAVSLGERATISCKSSESVLYEWRNKNSVAWYQQKAGQPPKLLIYWASTRESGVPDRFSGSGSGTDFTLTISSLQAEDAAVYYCQDYHRLPLSFGGGTKVEIK the result was 3.45, 2.71, 4.86.
With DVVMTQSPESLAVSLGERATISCSSSASVLYESRNKNSVAWYQQKAGQPPKLLIYWASTRESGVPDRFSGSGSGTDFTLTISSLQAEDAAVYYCQQYHRLSLSFGGGTKVEIK the result was 1.13, 2.79, 1.53.
With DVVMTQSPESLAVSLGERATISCKSKYSVLYESRNKNSVAWYQQKAGQPPKLLIYWASTRESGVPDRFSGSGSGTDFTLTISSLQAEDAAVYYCQQQHRLPLSFGGGTKVEIK the result was 3.92, 3.24, 3.85.
With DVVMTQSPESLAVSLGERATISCKSSISVLTESRNKNSVAWYQQKAGQPPKLLIYWASTRESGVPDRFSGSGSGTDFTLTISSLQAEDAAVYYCQQYHRLPLSFGGGTKVEIK the result was 0.45, 0.72, 0.60.
With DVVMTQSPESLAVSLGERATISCKSSCSVLYESRNKNSVAWYQQKAGQPPKLLIYWASTRESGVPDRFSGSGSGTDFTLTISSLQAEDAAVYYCIQYFRLPLSFGGGTKVEIK the result was 4.43, 2.92, 3.87.
With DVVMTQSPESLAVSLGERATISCKSSISRLYESRNKNSVAWYQQKAGQPPKLLIYWASTRESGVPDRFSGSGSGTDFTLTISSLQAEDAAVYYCQQYHRLPLSFGGGTKVEIK the result was 1.20, 1.08, 1.17.

The closing 2 entries, repeated:

VL,log10 Kd (nM) by replicate
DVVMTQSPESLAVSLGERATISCKSSCSVLYESRNKNSVAWYQQKAGQPPKLLIYWASTRESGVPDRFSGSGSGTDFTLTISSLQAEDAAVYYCIQYFRLPLSFGGGTKVEIK,"4.43, 2.92, 3.87"
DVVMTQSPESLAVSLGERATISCKSSISRLYESRNKNSVAWYQQKAGQPPKLLIYWASTRESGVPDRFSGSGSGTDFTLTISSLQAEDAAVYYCQQYHRLPLSFGGGTKVEIK,"1.20, 1.08, 1.17"

Parent in this assay: reference entry 0.65, copy in this library 1.68.

From the AlphaSeq antibody data of Engelhart et al. 2022 (doi:10.1038/s41597-022-01779-4), copy in the FLAb collection.